Experimental data taken from publication PMC7017600 (Antiviral research, 2019).

Protein sequences, listed by entry. Tags and fused reporters are not part of them. Residues count along the entry.
UniProt P03186, 1-246: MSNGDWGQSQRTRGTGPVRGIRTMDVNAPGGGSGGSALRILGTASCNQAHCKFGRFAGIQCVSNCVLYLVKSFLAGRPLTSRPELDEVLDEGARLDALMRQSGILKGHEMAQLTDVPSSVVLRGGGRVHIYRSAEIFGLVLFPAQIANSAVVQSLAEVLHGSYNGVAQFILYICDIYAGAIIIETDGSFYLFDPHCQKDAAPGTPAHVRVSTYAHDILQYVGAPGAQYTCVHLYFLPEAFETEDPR

Molecular target: BPLF1 1–246 (Epstein-Barr virus, UniProt P03186)

Substance: Basilen blue E-3G
- IC50: > 10 µM
